# scFv variants of Ab-14 (heavy chain) against a SARS-CoV-2 spike peptide

Values reported by Engelhart et al. 2022, doi:10.1038/s41597-022-01779-4 (FLAb copy).

The target is the same throughout: PDVDLGDISGINAS, from the HR2 region of SARS-CoV-2 spike.

Ab-14 is the parent antibody, in scFv form: VH, then a 15-residue (Gly4Ser)3 linker, then VL. The light chain is unchanged in all variants.
VH: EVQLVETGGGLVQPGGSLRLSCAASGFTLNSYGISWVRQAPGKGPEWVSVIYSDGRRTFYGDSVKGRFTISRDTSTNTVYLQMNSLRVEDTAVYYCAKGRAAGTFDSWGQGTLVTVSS
VL: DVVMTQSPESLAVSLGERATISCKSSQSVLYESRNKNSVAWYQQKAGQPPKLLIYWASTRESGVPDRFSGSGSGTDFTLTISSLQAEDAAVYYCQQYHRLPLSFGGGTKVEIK

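In library AAYL49, one, two or three CDR residues were substituted; doubles and triples were drawn at random. The assay is AlphaSeq: two haploid yeast populations carry antibody and antigen on their surface. Binding brings cells together so that they mate, and sequencing counts the barcode pairs among the diploids. The ratio of observed to expected reads was calibrated, replicate by replicate, on BCL2-family standards whose Kd was known from biolayer interferometry. The assay was run in three technical replicates.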

Variants are written as CDR1, CDR2 and CDR3 of the heavy chain (limits as in the source). Parent: GFTLNSYGIS, VIYSDGRRTFYGDSVK, GRAAGTFDS. The read-out is the apparent dissociation constant on a log10 scale (nM): the lower, the stronger. An entry "n.d." has no value in the source: the pair was not observed among the diploids in that replicate. This suggests poor binding but is not conclusive. Three control strains display no target. For library AAYL49, 15% of the pairings with them gave a signal, with a median of 4.06 and one signal in twenty below 2.83, so weak values seen in few replicates may be background. The control count says in how many pairings with the empty strains this scFv gave a signal, with their mean in brackets.

{"CDR-H1": "GFTLNSYGIS", "CDR-H2": "VIYSDGRMTFYGDSVM", "CDR-H3": "GRAAGTFDN", "log10 Kd, replicates": "n.d. / n.d. / n.d.", "control signals": "0/9"}
{"CDR-H1": "GFTLNSYRIS", "CDR-H2": "VIYSMGRRTFYGDSVK", "CDR-H3": "GRAAGTFDS", "log10 Kd, replicates": "n.d. / n.d. / n.d.", "control signals": "0/9"}
{"CDR-H1": "MGTLNSYGIS", "CDR-H2": "VIYSDYRRTFYGDSVK", "CDR-H3": "GRAAGTFDS", "log10 Kd, replicates": "n.d. / n.d. / n.d.", "control signals": "1/9 (4.43)"}
{"CDR-H1": "GFTLNSYGIS", "CDR-H2": "VIYSYGRRTFYGDSVK", "CDR-H3": "GRAFMTFDS", "log10 Kd, replicates": "n.d. / n.d. / n.d.", "control signals": "1/9 (3.83)"}
{"CDR-H1": "GPTLNSYGIS", "CDR-H2": "VIYSDGRRTFYGDSVK", "CDR-H3": "GRAAISFDS", "log10 Kd, replicates": "n.d. / n.d. / n.d.", "control signals": "1/9 (3.87)"}
{"CDR-H1": "GFQLNSYGIS", "CDR-H2": "VTYSDGRFTFYGDSVK", "CDR-H3": "GRAAGTFDS", "log10 Kd, replicates": "3.24 / n.d. / 4.24", "control signals": "0/9"}
{"CDR-H1": "GFTLNSYGIK", "CDR-H2": "KIDSDGRRTFYGDSVK", "CDR-H3": "GRAAGTFDS", "log10 Kd, replicates": "n.d. / n.d. / n.d.", "control signals": "0/9"}
{"CDR-H1": "GMTLNSYAIS", "CDR-H2": "VWYSDGRRTFYGDSVK", "CDR-H3": "GRAAGTFDS", "log10 Kd, replicates": "n.d. / 3.94 / n.d.", "control signals": "1/9 (3.52)"}
{"CDR-H1": "GFTLNSYGIS", "CDR-H2": "VIYSDFRRTFYGDSVK", "CDR-H3": "GRAVGTPDS", "log10 Kd, replicates": "n.d. / n.d. / n.d.", "control signals": "6/9 (4.07)"}
{"CDR-H1": "GFTSNSYCIS", "CDR-H2": "VIYSDGRRTFYGDSVK", "CDR-H3": "GRCAGTFDS", "log10 Kd, replicates": "5.00 / 4.45 / 5.34", "control signals": "5/9 (4.34)"}
{"CDR-H1": "GFTLNSYFIS", "CDR-H2": "VIYSDGRRTFYSESVK", "CDR-H3": "GRAAGTFDS", "log10 Kd, replicates": "n.d. / n.d. / n.d.", "control signals": "2/9 (4.30)"}
{"CDR-H1": "GFTMSSYGIS", "CDR-H2": "VIYSDGRRTFYGDSVK", "CDR-H3": "GRAASTFDS", "log10 Kd, replicates": "2.86 / 2.38 / 2.56", "control signals": "5/9 (4.13)"}
{"CDR-H1": "GFTLNSYGIS", "CDR-H2": "WIYSDGRRTFYGDSVK", "CDR-H3": "GRAAATSDS", "log10 Kd, replicates": "n.d. / n.d. / 5.59", "control signals": "2/9 (4.72)"}
{"CDR-H1": "GFSLNAYGIS", "CDR-H2": "VIYSDVRRTFYGDSVK", "CDR-H3": "GRAAGTFDS", "log10 Kd, replicates": "n.d. / n.d. / n.d.", "control signals": "1/9 (3.94)"}
{"CDR-H1": "GFTLNSYGIS", "CDR-H2": "VIYSGGSRTFYGDSVK", "CDR-H3": "GRAIGTFDS", "log10 Kd, replicates": "n.d. / n.d. / n.d.", "control signals": "0/9"}
{"CDR-H1": "GFTLNSYGIS", "CDR-H2": "VIYSDGRRTFYGDSVM", "CDR-H3": "GRAAGTFDC", "log10 Kd, replicates": "2.26 / 2.01 / 2.08", "control signals": "0/9"}
{"CDR-H1": "GFTLNSYGIL", "CDR-H2": "VIYMDGRKTFYGDSVK", "CDR-H3": "GRAAGTFDS", "log10 Kd, replicates": "n.d. / n.d. / n.d.", "control signals": "1/9 (3.95)"}
{"CDR-H1": "GFTLHSYGIS", "CDR-H2": "VIYSDGRRTFYGDSVK", "CDR-H3": "GRAANTFDC", "log10 Kd, replicates": "1.66 / 1.40 / 2.05", "control signals": "0/9"}
{"CDR-H1": "GFTLPSYGIS", "CDR-H2": "VIYSDGVRTFYGDSVK", "CDR-H3": "GRAAGTFDS", "log10 Kd, replicates": "2.30 / 2.79 / 2.61", "control signals": "2/9 (3.55)"}
{"CDR-H1": "GFTLNSYWIS", "CDR-H2": "VIQSDGRRTFYGDSVK", "CDR-H3": "GRAASTFDS", "log10 Kd, replicates": "n.d. / n.d. / n.d.", "control signals": "3/9 (3.61)"}
{"CDR-H1": "GFTLNSYGIS", "CDR-H2": "VIYSDGRRTCYGDWVV", "CDR-H3": "GRAAGTFDS", "log10 Kd, replicates": "3.75 / 4.18 / n.d.", "control signals": "1/9 (2.05)"}
{"CDR-H1": "GFDLNSYGIS", "CDR-H2": "VIYSDGRRTFYGDSVK", "CDR-H3": "GRAAKTFDD", "log10 Kd, replicates": "0.10 / 0.06 / -0.10", "control signals": "3/9 (3.74)"}
{"CDR-H1": "GFTLNSYGIS", "CDR-H2": "VIYSDGRRNFYGDSVK", "CDR-H3": "GLAAGTQDS", "log10 Kd, replicates": "1.43 / 1.96 / n.d.", "control signals": "0/9"}
{"CDR-H1": "GKLLNSYGIS", "CDR-H2": "VIYSLGRRTFYGDSVK", "CDR-H3": "GRAAGTFDS", "log10 Kd, replicates": "n.d. / n.d. / n.d.", "control signals": "0/9"}
{"CDR-H1": "GFTLNSYGIS", "CDR-H2": "VINSDGRRTHYGDSVK", "CDR-H3": "GRKAGTFDS", "log10 Kd, replicates": "n.d. / n.d. / n.d.", "control signals": "2/9 (3.17)"}
{"CDR-H1": "GFTLNSYGWS", "CDR-H2": "VIYSDGRRTFYGDSVK", "CDR-H3": "GRALTTFDS", "log10 Kd, replicates": "n.d. / n.d. / n.d.", "control signals": "1/9 (2.68)"}
{"CDR-H1": "MFTLNSYGIS", "CDR-H2": "VIYSDGRRTCYKDSVK", "CDR-H3": "GRAAGTFDS", "log10 Kd, replicates": "n.d. / n.d. / 4.49", "control signals": "0/9"}
{"CDR-H1": "GFTLNSYGIS", "CDR-H2": "VIYSDGRRTFYGDSVK", "CDR-H3": "GRMASTFVS", "log10 Kd, replicates": "n.d. / n.d. / n.d.", "control signals": "0/9"}

2 of these entries, quoted again:

{"CDR-H1": "GFTLNSYWIS", "CDR-H2": "VIQSDGRRTFYGDSVK", "CDR-H3": "GRAASTFDS", "log10 Kd, replicates": "n.d. / n.d. / n.d.", "control signals": "3/9 (3.61)"}
{"CDR-H1": "GFTLNSYGIS", "CDR-H2": "VIYSDGRRTCYGDWVV", "CDR-H3": "GRAAGTFDS", "log10 Kd, replicates": "3.75 / 4.18 / n.d.", "control signals": "1/9 (2.05)"}